Assay [1] has as its target T1, Gastrin/cholecystokinin type B receptor (Homo sapiens, UniProt P32239).
T1 sequence (P32239 whole entry): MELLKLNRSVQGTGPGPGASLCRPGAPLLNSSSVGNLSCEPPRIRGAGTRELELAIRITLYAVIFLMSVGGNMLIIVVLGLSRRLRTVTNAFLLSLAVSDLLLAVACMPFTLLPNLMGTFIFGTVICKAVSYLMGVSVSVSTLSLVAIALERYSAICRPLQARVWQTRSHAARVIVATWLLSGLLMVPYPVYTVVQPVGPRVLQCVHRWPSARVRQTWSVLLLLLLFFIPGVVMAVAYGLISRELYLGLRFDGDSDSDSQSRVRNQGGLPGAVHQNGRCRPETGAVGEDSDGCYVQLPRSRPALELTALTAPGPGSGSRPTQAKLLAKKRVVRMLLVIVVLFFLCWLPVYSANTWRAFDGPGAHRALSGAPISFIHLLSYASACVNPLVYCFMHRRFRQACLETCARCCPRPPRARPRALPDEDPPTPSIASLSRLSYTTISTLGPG
The assay can be described thus: Displacement of [125I]-CCK-8 from human CCK2R expressed in human 1321N1 cell membranes after 2 hrs by SPA assay.

In assay [2] the target is T1, Gastrin/cholecystokinin type B receptor. The assay can be described thus: Agonist activity at human CCK2R expressed in human 1321N1 cells assessed as IP1 accumulation after 1 hr by HTRF assay. It counts as functional, cell-based.

The compound `CSCC[C@H](NC(=O)[C@H](Cc1ccc(OS(=O)(=O)O)cc1)NC(=O)[C@H](CC(=O)O)NC(=O)COCCOCCNC(=O)COCCOCCNC(=O)CC[C@H](NC(=O)CCCCCCCCCCCCCCCCC(=O)O)C(=O)O)C(=O)NCC(=O)N[C@@H](Cc1c[nH]c2ccccc12)C(=O)N[C@@H](CCSC)C(=O)N(C)[C@H](CC(=O)O)C(=O)N(C)[C@@H](Cc1ccccc1)C(N)=O` gave a half-maximal inhibitory concentration (IC50) in assay [1] of 6.61 µM. In addition, in assay [2], the EC50 is 0.174 µM.

Source of the values: ChEMBL document CHEMBL4368907 (J Med Chem, 2019).
